Data: paper PMC9609924, “In Vitro Characterization of Inhibitors for Lung A549 and Leukemia K562 Cell Lines from Fungal Transformation of Arecoline Supported by In Silico Docking to M3-mAChR and ADME Prediction” (Pharmaceuticals, 2022)

Assays:
normal lung cell WI38 = assay: MTT cytotoxicity assay, normal lung cell WI38; type: cell-based
Procedure: (§1) The selectivity index identifies the selectivity of the tested compounds toward the cancer cell line and is calculated by dividing the IC50 against the normal cell line by the IC50 against the cancer cells.

[1] = tested on: leukemia cancer K562 cells; assay: Annexin V-FITC/propidium iodide apoptosis detection, K562; type: cell-based, human; conditions: K562, versus untreated cells
Procedure: For cell cycle analysis, a propidium iodide flow cytometry kit (ab139418, Abcam, Cambridge, UK) was used. For apoptosis, we used an annexin V apoptosis kit, which is composed of annexin V-FITC (fluorescein isothiocyanate), 1X binding buffer, and propidium iodide. Detection was conducted by measuring DNA content using a flow cytometer.

[2] = tested on: normal blood cell PCS-800-016; assay: MTT cytotoxicity assay, normal blood cell PCS-800-016; type: cell-based
Procedure: as §1

`O=C(O)C1CCCNC1` [Compound 3, D-piperidine-3-carboxylic acid] was tested, and the “SI (Lung), selectivity index” value (normal lung cell WI38) was 3.64, the “Fold increase of early apoptosis than control” value [1] was 6.30 fold and the “Fold increase of late apoptosis than control” value [1] was 758.75 fold. The “Fold increase of necrosis than control” value [1] was 8.30 fold, the “Fold increase of total cell death than control” value [1] was 25.73 fold and the “SI (Blood Cell), selectivity index” value [2] was 11.37.
